Test results reported in patent US7919261B2, “Methods for predicting treatment response based on the expression profiles of protein and transcription biomarkers” (Merck Sharp & Dohme Corp., priority 2006, dated 2011).

System: HuT_78
Assay: CellTiter-Blue Cell Viability Assay
Type: cell-based, human
Settings: HUT78 CTCL cells, 48 h, standard proliferation/viability assay (FIG. 3A)
Description: For the proliferation assay, cell lines were seeded on 96-well plates (Corning). After 24 hours of plating, the 96-well plates were treated with vorinostat (SAHA) (0, 0.004-30 uM). The CellTiter-Blue Reagent™ was added to each of the wells. Experiments were performed in triplicate. The plates were then placed at 37° C. for two hours, and subsequently read on the Flex Station II […] from Molecular Devices. The IC50 values were calculated using the Sigma Plot software. Combination index for the studies to test efficacy of Vorinostat and JAK inhibitors was calculated with CalcuSyn software (is there a web site for this or a reference that describes the software)
An expanded set of 50 human cell lines, including the twelve cell lines listed in Table 1, were assembled (Table 2), that represent a range of lymphoid tumor types (including 10 diffuse large B cell lymphoma, 10 Burkitt lymphoma, 8 multiple myeloma and 5 CTCL). As detailed in Example 1, each of these cell lines was cultured in vitro and response to vorinostat was assessed at 8 different concentrations (0 and 0.04 to 30 micromolar) at 24 hr using the ApoONE™ Homogeneous Caspase-3/7 Assay (Promega) and at 24, 48 and 72 h using the CellTiter-Blue™ Cell Viability Assay (Promega). The CellTiter Blue assay was used to determine the vorinostat IC50 for each cell line.

## CC(C)(C)c1nc2c3cc[nH]c(=O)c3c3cc(F)ccc3c2[nH]1 [Compound B, 2-tert-butyl-9-fluoro-1,6-dihydro-7H-benzo[h]imidazo[4,5-f]isoquinolin-7-one]
  anti-proliferative effect of co-incubation with vorinostat (0.37 μM): synergistic anti-proliferative effect
